Biological target: Recombinant Human Poly(ADP-Ribose) Polymerase (PARP), PARP-1 (Homo sapiens (Human), UniProt P09874)

Sequences of proteins named here, by UniProt entry; tags and fusion partners are left off.
UniProt P09874, whole entry: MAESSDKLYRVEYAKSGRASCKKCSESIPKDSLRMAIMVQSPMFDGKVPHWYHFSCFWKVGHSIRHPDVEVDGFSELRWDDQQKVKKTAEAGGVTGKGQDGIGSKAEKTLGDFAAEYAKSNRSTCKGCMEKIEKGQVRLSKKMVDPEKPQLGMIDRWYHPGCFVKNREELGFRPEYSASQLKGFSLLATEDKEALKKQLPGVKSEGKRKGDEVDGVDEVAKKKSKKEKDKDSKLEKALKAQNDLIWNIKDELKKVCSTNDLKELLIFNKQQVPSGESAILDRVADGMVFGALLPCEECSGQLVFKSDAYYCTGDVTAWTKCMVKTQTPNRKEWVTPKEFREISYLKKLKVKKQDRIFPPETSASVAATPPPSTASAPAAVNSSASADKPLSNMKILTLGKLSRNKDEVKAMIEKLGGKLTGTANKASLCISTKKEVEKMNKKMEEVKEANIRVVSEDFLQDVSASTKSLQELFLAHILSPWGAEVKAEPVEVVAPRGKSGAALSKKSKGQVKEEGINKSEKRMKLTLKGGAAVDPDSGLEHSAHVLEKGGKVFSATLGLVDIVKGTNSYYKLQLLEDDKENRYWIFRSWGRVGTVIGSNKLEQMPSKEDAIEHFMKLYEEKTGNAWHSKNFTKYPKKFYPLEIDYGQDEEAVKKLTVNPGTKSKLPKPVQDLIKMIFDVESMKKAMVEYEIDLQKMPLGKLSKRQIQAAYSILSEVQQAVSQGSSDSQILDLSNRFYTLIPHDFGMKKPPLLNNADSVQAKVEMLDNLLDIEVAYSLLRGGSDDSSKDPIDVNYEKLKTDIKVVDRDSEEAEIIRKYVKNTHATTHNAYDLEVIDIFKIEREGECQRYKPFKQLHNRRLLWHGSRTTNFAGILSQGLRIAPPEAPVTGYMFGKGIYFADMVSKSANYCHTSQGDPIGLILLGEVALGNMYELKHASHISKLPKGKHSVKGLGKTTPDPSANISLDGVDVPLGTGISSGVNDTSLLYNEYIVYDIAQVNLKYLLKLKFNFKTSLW

Row | Compound | Ki [nM]
1 | O=C1[C@@H]2CC[C@@H](C2)N1c1cc(Cc2n[nH]c(=O)c3c2CCCC3)ccc1F | 7
2 | O=C1CCC(=O)N1c1cc(Cc2n[nH]c(=O)c3c2CCCC3)ccc1F | 1.5
